The data set in a line: Pilot brain and plasma pharmacokinetic studies of SW-100. Conditions: male, C57BL/6, mouse, ip, 20 mg/kg. Type of data set: in vivo, C57BL/6 male mice.

The Kp is tissue or fluid exposure divided by exposure in the circulation.

As for `O=C(NO)c1ccc(CN2CCCc3cc(Cl)ccc32)cc1` [SW-100, 4-((6-Chloro-3,4-dihydroquinolin-1(2H)-yl)methyl)-N-hydroxybenzamide], the Kp at 4 h was found to be 4.54.

The values above are taken from PMC6512341 (ACS chemical neuroscience, 2018).
